These results are taken from ChEMBL document CHEMBL4043163, “Methyl propiolate and 3-butynone: Starting points for synthesis of amphiphilic 1,2,3-triazole peptidomimetics for antimicrobial evaluation” (Bioorg Med Chem, 2017).

For one test, the system named is Pseudomonas aeruginosa. The test can be described thus: Antimicrobial activity against Pseudomonas aeruginosa ATCC 27853 assessed as growth inhibition incubated overnight at 37degC by visual and photometry based method. Format: functional.
The next test deals with Escherichia coli. In words: Antimicrobial activity against Escherichia coli ATCC 25922 assessed as growth inhibition incubated overnight at 37degC by visual and photometry based method. Format: functional.

As to GENTAMICIN, the minimal inhibitory concentration (MIC) in the test on Pseudomonas aeruginosa and with Escherichia coli was 0.5 µg/mL throughout.
